For 24 compounds, IC50 results are on record in patent US10287301B2 (Achillion Pharmaceuticals, Inc., priority 2015, dated 2019).

Chains of the proteins cited; added tags and fusions are not shown. Residues count along the entry.
UniProt P00746, 26-253: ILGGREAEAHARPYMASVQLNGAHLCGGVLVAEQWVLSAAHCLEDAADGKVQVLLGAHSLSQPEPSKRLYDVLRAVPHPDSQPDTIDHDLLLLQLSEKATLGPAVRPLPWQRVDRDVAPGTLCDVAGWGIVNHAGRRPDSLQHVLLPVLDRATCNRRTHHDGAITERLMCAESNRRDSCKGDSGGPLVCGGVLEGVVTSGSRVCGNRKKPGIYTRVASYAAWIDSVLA

SMILES strings stand for the structures.

The target in the first assay is Human Factor D (Homo sapiens (Human), UniProt P00746). Kind of assay: Human Factor D Assay. It is filed as biochemical.
Details: not given
On the procedure:
Human Factor D (purified from human serum, Complement Technology, Inc.) at 80 nM final concentration was incubated with test compound at various concentrations for 5 minutes at room temperature in 50 mM Tris, 1M NaCl, pH 7.5. A synthetic substrate Z-L-Lys-SBzl and DTNB (Ellman's reagent) are added to final concentrations of 100 μM each. […] IC50 values are calculated by nonlinear regression of complement Factor D reaction rates as a function of test compound concentration.
Compound `CCCCCOc1cccc(NC(=O)[C@@H]2C[C@@H](F)CN2C(=O)Cn2nc(C(C)=O)c3cc(-c4cnc(C)nc4)ccc32)n1` [Compound 519, (2S,4R)-1-(2-(3-Acetyl-5-(2-methylpyrimidin-5-yl)-1H-indazol-1-yl)acetyl)-4-fluoro-N-(6-(pentyloxy)pyridin-2-yl)pyrrolidine-2-carboxamide] came in with an IC50 of 1 to 10 µM. Same read-out and setting: in the case of `CC(=O)c1nn(CC(=O)N2CCC[C@H]2C(=O)Nc2cccc(C)n2)c2ccc(-c3cccnc3)cc12` [Compound 525, (S)-1-(2-(3-Acetyl-5-(pyridin-3-yl)-1H-indazol-1-yl)acetyl)-N-(6-methylpyridin-2-yl)pyrrolidine-2-carboxamide] it was 1 to 10 µM; in that of `COc1ccc(-c2ccc3c(c2)c(C(C)=O)nn3CC(=O)N2CCC[C@H]2C(=O)Nc2cccc(C)n2)cn1` [Compound 543, (S)-1-(2-(3-Acetyl-5-(6-methoxypyridin-3-yl)-1H-indazol-1-yl)acetyl)-N-(6-methylpyridin-2-yl)pyrrolidine-2-carboxamide], 1 to 10 µM; in that of `CC(=O)c1nn(CC(=O)N2CCC[C@H]2C(=O)Nc2cccc(C)n2)c2ccc(-c3cccc(C#N)c3)cc12` [Compound 544, (S)-1-(2-(3-Acetyl-5-(3-cyanophenyl)-1H-indazol-1-yl)acetyl)-N-(6-methylpyridin-2-yl)pyrrolidine-2-carboxamide], 1 to 10 µM. On to `CC(=O)c1nn(CC(=O)N2CCC[C@H]2C(=O)Nc2cccc(C)n2)c2ccc(-c3ccc(F)nc3)cc12` [Compound 545, (S)-1-(2-(3-Acetyl-5-(6-fluoropyridin-3-yl)-1H-indazol-1-yl)acetyl)-N-(6-methylpyridin-2-yl)pyrrolidine-2-carboxamide], for which the IC50 is 1 to 10 µM. Compound `CC(=O)c1nn(CC(=O)N2C[C@H](F)C[C@H]2C(=O)NCC2CCN(CC(F)(F)F)C2)c2ccc(-c3cnc(C)nc3)cc12` (stereo partly drawn) [Compound 550, (2S,4R)-1-(2-(3-Acetyl-5-(2-methylpyrimidin-5-yl)-1H-indazol-1-yl)acetyl)-4-fluoro-N-((1-(2,2,2-trifluoroethyl)pyrrolidin-3-yl)methyl)pyrrolidine-2-carboxamide] showed an IC50 of 1 to 10 µM. `CC(=O)c1nn(CC(=O)N2C[C@H](F)C[C@H]2C(=O)Nc2ccnc(C)c2)c2ccc(-c3cnc(C)nc3)cc12` [Compound 565, (2S,4R)-1-(2-(3-Acetyl-5-(2-methylpyrimidin-5-yl)-1H-indazol-1-yl)acetyl)-4-fluoro-N-(2-methylpyridin-4-yl)pyrrolidine-2-carboxamide] came in with a 50% inhibitory concentration (IC50) of 1 to 10 µM.

The compound `CC(=O)c1nn(CC(=O)N2CCC[C@H]2C(=O)Nc2cccc(C)n2)c2ccc(-c3ccc(C)nc3)cc12` [Compound 586, (S)-1-(2-(3-Acetyl-5-(6-methylpyridin-3-yl)-1H-indazol-1-yl)acetyl)-N-(6-methylpyridin-2-yl)pyrrolidine-2-carboxamide] yielded an IC50 of 1 to 10 µM. Same read-out and setting: in the case of `CC(=O)c1nn(CC(=O)N2CC[C@H]2C(=O)Nc2cccc(C)n2)c2ccc(-c3ccc4cccnc4c3)cc12` [Compound 590, (S)-1-(2-(3-Acetyl-5-(quinolin-7-yl)-1H-indazol-1-yl)acetyl)-N-(6-methylpyridin-2-yl)azetidine-2-carboxamide] it was 1 to 10 µM.

Consider `CC(=O)c1nn(CC(=O)N2C[C@H](F)C[C@H]2C(=O)NC2CCN(CC(F)(F)F)C2)c2ccc(-c3cnc(C)nc3)cc12` (stereo partly drawn) [Compound 610, (2S, 4R)-1-(2-(3-Acetyl-5-(2-methylpyrimidin-5-yl)-1H-indazol-1-yl)acetyl)-4-fluoro-N-(1-(2,2,2-trifluoroethyl)pyrrolidin-3-yl) pyrrolidine-2-carboxamide], for which the IC50 lay in the range of 1 to 10 µM. Take `CC(=O)c1nn(CC(=O)N2C[C@H](F)C[C@H]2C(=O)N[C@H](C)C(F)=C(C)C)c2ccc(-c3cnc(C)nc3)cc12` [Compound 613, (2S,4R)-1-(2-(3-Acetyl-5-(2-methylpyrimidin-5-yl)-1H-indazol-1-yl)acetyl)-4-fluoro-N—((R)-3-fluoro-4-methylpent-3-en-2-yl)pyrrolidine-2-carboxamide]: the half-maximal inhibitory concentration (IC50) fell in the range of 1 to 10 µM. Same read-out and setting: as for `CC(=O)c1nn(CC(=O)N2C[C@H](F)C[C@H]2C(=O)Nc2cccc(C(=O)N(C)C)n2)c2ccc(-c3cnc(C)nc3)cc12` [Compound 618, 6-((2S,4R)-1-(2-(3-Acetyl-5-(2-methylpyrimidin-5-yl)-1H-indazol-1-yl)acetyl)-4-fluoropyrrolidine-2-carboxamido)-N,N-dimethylpicolinamide], the figure is 1 to 10 µM; as for `CNC(=O)c1cccc(NC(=O)[C@@H]2C[C@@H](F)CN2C(=O)Cn2nc(C(C)=O)c3cc(-c4cnc(C)nc4)ccc32)n1` [Compound 619, 6-((2S,4R)-1-(2-(3-Acetyl-5-(2-methylpyrimidin-5-yl)-1H-indazol-1-yl)acetyl)-4-fluoropyrrolidine-2-carboxamido)-N-methylpicolinamide], 1 to 10 µM. `Cc1cccc(NC(=O)[C@@H]2[C@H]3CC[C@H](C3)N2C(=O)Cn2cc(C(N)=O)c3cc(-c4cnc5cc(C)nn5c4)ccc32)n1` [Compound 691, 5-(2-Methylpyrazolo[1,5-a]pyrimidin-6-yl)-1-(2-((1R,3S,4S)-3-(6-methylpyridin-2-ylcarbamoyl)-2-azabicyclo[2.2.1]heptan-2-yl)-2-oxoethyl)-1H-indole-3-carboxamide] returned an IC50 of 1 to 10 µM.

Regarding `CC(=O)c1cn(CC(=O)N2CC[C@H]2C(=O)Nc2cccc(C)n2)c2ccc(-c3cnc4cc(C)nn4c3)cc12` [Compound 692, (S)-1-(2-(3-Acetyl-5-(2-methylpyrazolo[1,5-a]pyrimidin-6-yl)-1H-indol-1-yl)acetyl)-N-(6-methylpyridin-2-yl)azetidine-2-carboxamide], the half-maximal inhibitory concentration (IC50) lay within 1 to 10 µM. `CC(=O)c1cn(CC(=O)N2C[C@H](F)C[C@H]2CCNS(=O)(=O)c2ccccc2)c2ccc(-c3cnc4cc(C)nn4c3)cc12` [Compound 697, N-(2-((2R,4R)-1-(2-(3-acetyl-5-(2-methylpyrazolo[1,5-a]pyrimidin-6-yl)-1H-indol-1-yl)acetyl)-4-fluoropyrrolidin-2-yl)ethyl)benzenesulfonamide] displayed a concentration for half-maximal inhibition (IC50) of 1 to 10 µM. `CC(=O)c1nn(CC(=O)N2CCC[C@H]2C(=O)Nc2cccc(C)n2)c2ccc(-c3cnc4n3CCCC4)cc12` [Compound 700, (S)-1-(2-(3-Acetyl-5-(5,6,7,8-tetrahydroimidazo[1,2-a]pyridin-3-yl)-1H-indazol-1-yl)acetyl)-N-(6-methylpyridin-2-yl)pyrrolidine-2-carboxamide] registered a concentration for half-maximal inhibition (IC50) of 1 to 10 µM. The compound `CC(=O)c1nn(CC(=O)N2C[C@@](F)(CN(C)C)C[C@H]2C(=O)Nc2nc(Br)ccc2C2CC2)c2ccc(-c3cnc(C)nc3)cc12` [Compound 733, (2S,4S)-1-(2-(3-Acetyl-5-(2-methylpyrimidin-5-yl)-1H-indazol-1-yl)acetyl)-N-(6-bromo-3-cyclopropylpyridin-2-yl)-4-((dimethylamino)methyl)-4-fluoropyrrolidine-2-carboxamide] registered a half-inhibitory concentration (IC50) of 1 to 10 µM. The compound `CC(=O)c1nn(CC(=O)N2C3CC3(CN3CCOCC3)C[C@H]2C(=O)Nc2nc(Br)ccc2C)c2ccc(-c3cnc(C)nc3)cc12` (stereo partly drawn) [Compound 751, (3S)-2-(2-(3-acetyl-5-(2-methylpyrimidin-5-yl)-1H-indazol-1-yl)acetyl)-N-(6-bromo-3-methylpyridin-2-yl)-5-(morpholinomethyl)-2-azabicyclo[3.1.0] hexane-3-carboxamide] returned an IC50 of 1 to 10 µM. For the compound `CC(=O)c1nn(CC(=O)N2C3CC3(CN3CCCC3)C[C@H]2C(=O)Nc2nc(Br)ccc2C)c2ccc(-c3cnc(C)nc3)cc12` (stereo partly drawn) [Compound 753, (3S)-2-(2-(3-Acetyl-5-(2-methylpyrimidin-5-yl)-1H-indazol-1-yl)acetyl)-N-(6-bromo-3-methylpyridin-2-yl)-5-(pyrrolidin-1-ylmethyl)-2-azabicyclo[3.1.0]hexane-3-carboxamide], the IC50 is 1 to 10 µM.

Still in this assay, the particulars now being: Human Factor D, Table 3.
As to `CC(=O)c1nn(CC(=O)N2C3CC3(CN3CCOCC3)C[C@H]2C(=O)Nc2nc(Br)ccc2C)c2ccc(-c3cnc(C)nc3)cc12` (stereo partly drawn) [Compound 754, (3S)-2-(2-(3-acetyl-5-(2-methylpyrimidin-5-yl)-1H-indazol-1-yl)acetyl)-N-(6-bromo-3-methylpyridin-2-yl)-5-(morpholinomethyl)-2-azabicyclo[3.1.0] hexane-3-carboxamide], the IC50 lay in the range of 1 to 10 µM.

The same assay, now with this note: Human Factor D, Table 3; read-out: IC50.
For the compound `CC(=O)c1nn(CC(=O)N2C[C@H](F)C[C@H]2C(=O)N[C@@H](C)C(F)=C(C)C)c2ccc(-c3cnc(C)nc3)cc12` [Compound 614, (2S,4R)-1-(2-(3-Acetyl-5-(2-methylpyrimidin-5-yl)-1H-indazol-1-yl)acetyl)-4-fluoro-N—((S)-3-fluoro-4-methylpent-3-en-2-yl)pyrrolidine-2-carboxamide], the half-inhibitory concentration (IC50) is less than 1 µM.

Staying with this assay, now noted: Table 3; Human Factor D 80 nM, substrate Z-L-Lys-SBzl; read-out: IC50 (Stars).
With `CC(=O)c1nn(CC(=O)N2C[C@H](F)C[C@@H]2C(=O)Nc2cccc(Br)n2)c2ccc(-c3cnc(C)nc3)cc12` [Compound 517, (2R,4R)-1-(2-(3-acetyl-5-(2-methylpyrimidin-5-yl)-1H-indazol-1-yl)acetyl)-N-(6-bromopyridin-2-yl)-4-fluoropyrrolidine-2-carboxamide], the half-inhibitory concentration (IC50) was more than 10 µM. For `CC(=O)c1nn(CC(=O)N2C[C@@H](F)C[C@@H]2C(=O)Nc2cccc(Br)n2)c2ccc(-c3cnc(C)nc3)cc12` [Compound 518, (2R,4S)-1-(2-(3-acetyl-5-(2-methylpyrimidin-5-yl)-1H-indazol-1-yl)acetyl)-N-(6-bromopyridin-2-yl)-4-fluoropyrrolidine-2-carboxamide], the IC50 was more than 10 µM.

As a reminder, the IC50 is the concentration that gives 50% inhibition.
